The text below walks through data of patent US20250361241A1, “HPK1 INHIBITOR AND MEDICAL USE THEREOF” (Betta Pharmaceuticals Co., Ltd., priority 2022, published 2025).

The nature of this data set: PK study of compound in monkeys. Particulars: in vivo; crab-eating monkey, IV 1 mg/kg and PO 5 mg/kg; read-out: Bioavailability F %. As to the method: Pharmacological Experiment 7: PK Study of Compound in Monkeys
The drug concentration was analyzed by LC-MS/MS method, and the pharmacokinetic parameters were calculated using Phoenix WinNolin software (Pharsight, USA).

In general, bioavailability refers to dose-corrected exposure relative to a reference, in per cent. Consider `CN(C)Cc1nc(Nc2ccc(-c3cnc4cc(F)ccn34)c3c2C(=O)NC3)ccc1C1CCOCC1` [Compound D1, reference compound], for which the bioavailability came to 38.2%.
